The assay relates to LCC6MDR. The experiment in a line: Reversal of Pgp-mediated paclitaxel resistance in human LCC6MDR cells assessed as relative fold by measuring paclitaxel IC50 at 10 uM after 5 days by Cell Titer-Glo luminescence assay relative to control. Format: cell-based. The note with it: time 5.0 day. In general terms: In ATP-based viability assays light output follows the ATP content of the culture.

Consider `O=C(O[C@@H]1Cc2c(O)cc(O)cc2O[C@@H]1c1cc(O)c(O)c(O)c1)c1cc(O)c(O)c(O)c1` [EPIGALOCATECHIN GALLATE], for which the fold change (FC) is 1.2.
